Only some compounds are listed: those with a hit (about 1.2% of all), similar ones and a draw of the others.
miR122 inh: miR-122 Renilla sensor signal increase in Huh7, primary screen, miR-122 inhibitor project, cell-based, single point, plate reader; Huh7 miR-122 Renilla luciferase sensor, 48 h; neutral wells = 0, positive control = 100; activation (reporter increase), % at 12.5 µM; 0.3% of 340,000 active; AID 602342, 2012;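 active = mean replicate activation score at least 90 and every replicate individually at or above 90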;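 also: higher luciferase means less miR-122 activity so hits act as miR-122 inhibitors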
Yeast UUG start: yeast start codon fidelity modulation | S. cerevisiae UUG-firefly luciferase reporter, luminescence/redox ratio | activity score, % at 18.7 µM | hit rate 0.13% among 350,000 | AID 602363;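 active means replicate mean at a twofold rise or more, about +100% in these data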;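 further: firefly luciferase made from a UUG start codon reports start codon fidelity; reporter light over untreated wells divided by growth signal over untreated wells; some hits fall short of that in this replicate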
Cneo AK release: Cryptococcus neoformans cell lysis inducers, primary screen, AK release luminescence, single concentration; lysis activity, % at 15 µM; 0.2% of 360,000 active; C. neoformans lysis, adenylate kinase release luminescence, 4 h; normalised: neutral wells 0, clomiphene wells 100;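 active = mean lysis activity across replicates of at least 80%, whatever share of replicates individually reach that level; inactive = mean lysis activity below 80%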
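Material – Cryptococcus neoformans yeast cells · Quantity – 5 × 10^6 yeast cells/mL · Buffer or medium – YPD medium · Compound – single dose · Timing – 4 h static compound exposure, 37 °C, read 1 h post-reagent · Signal – adenylate kinase release luminescence · Read-out basis – lysis from increased AK signal · Benchmarks – Clomiphene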
C2C12 statin: suppressors of statin myotoxicity in C2C12 myotubes, primary screen, cell-based, single point, plate reader; C2C12 myotubes + simvastatin, ATP luminescence, 48 h; scaled: DMSO 0, geranylgeraniol control 100; rescue of ATP level, % at 7.49 µM; 0.78% of 330,000 active; AID 602340, 2012;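 active = mean ATP rescue above about 67%, or every replicate alone reaching that limit, limit read from the data, passing the limit was not always enough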;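 also: myotubes were challenged with 10 µM simvastatin during compound exposure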
A number is an active result.

Screening CC(C)c1ccc(N(CC(=O)NCCc2ccccc2)C(=O)c2csnn2)cc1 returned miR122 inh inactive, Yeast UUG start inactive, Cneo AK release inactive and C2C12 statin 81.
Cc1ccc(N(CC(=O)NCCc2ccccc2)C(=O)c2csnn2)cc1 was read as Yeast UUG start inactive, Cneo AK release inactive and C2C12 statin inactive.
Screening Cc1ccc(S(=O)(=O)Nc2ccc3c(c2)C(=O)N([C@@H](C)CO)C[C@@H](C)[C@H](CN(C)C(=O)Cc2ccccc2)OCCCC[C@H](C)O3)cc1 returned miR122 inh inactive, Yeast UUG start inactive and Cneo AK release inactive.
COc1ccc(C2C(C(=O)OCC(=O)NC(C)(C)C)CCC(=O)N2c2ccc(C)cc2)cc1OC (centres undefined) was read as miR122 inh inactive, Yeast UUG start inactive, Cneo AK release inactive and C2C12 statin inactive.
`COc1ccc(C2C(C(=O)OCC(=O)Nc3ccc(C)cc3)CCC(=O)N2c2ccc(OC)cc2)cc1` (centres undefined) gave miR122 inh inactive, Yeast UUG start inactive, Cneo AK release inactive and C2C12 statin 95.
`CCC(=O)N1[C@@H]2CN(S(=O)(=O)c3ccccc3C)c3ccccc3[C@@H]2[C@@H]1CO` gave miR122 inh inactive, Yeast UUG start inactive, Cneo AK release inactive and C2C12 statin inactive.
Screening CCN(CCCNC(=O)C1CCC(=O)N1C(C)C)c1cccc(C)c1 (centres undefined) returned miR122 inh inactive, Yeast UUG start inactive, Cneo AK release inactive and C2C12 statin 126.
For CS(=O)(=O)Nc1ccc2c(c1)[C@@H]1C[C@@H](CC(=O)NCc3ccc(Oc4ccccc4)cc3)O[C@@H](CO)[C@@H]1O2 the results were miR122 inh inactive, Yeast UUG start inactive, Cneo AK release inactive and C2C12 statin inactive.
Cc1[nH]nc2c1C(c1ccsc1)C(C#N)=C(N)O2 (centres undefined) was read as miR122 inh inactive, Yeast UUG start inactive, Cneo AK release inactive and C2C12 statin 141.
Cc1ccc(-c2[nH]nc3c2C(c2ccsc2)C(C#N)=C(N)O3)cc1 (centres undefined) was read as miR122 inh inactive, Yeast UUG start inactive, Cneo AK release inactive and C2C12 statin inactive.
Screening CC1CC(C)CN(CCCNC(=O)c2ccc(CS(=O)(=O)Cc3ccccc3F)o2)C1 (centres undefined) returned miR122 inh inactive, Yeast UUG start inactive, Cneo AK release inactive and C2C12 statin inactive.
Screening CCN1CCN(C(=O)c2ccc(CS(=O)(=O)Cc3ccccc3F)o2)CC1 returned miR122 inh inactive, Yeast UUG start inactive, Cneo AK release inactive and C2C12 statin 95.
C[C@@H]1CN([C@H](C)CO)S(=O)(=O)c2ccc(-c3ccccc3F)cc2O[C@H]1CN(C)Cc1ccncc1 was read as miR122 inh inactive, Yeast UUG start inactive, Cneo AK release inactive and C2C12 statin inactive.
COC(=O)C1=C(CSCc2ccccc2)NC(=O)NC1c1cc(C)ccc1C (centres undefined) was read as miR122 inh inactive, Yeast UUG start inactive, Cneo AK release inactive and C2C12 statin inactive.
For COC(=O)C1=C(CSCc2ccco2)NC(=O)NC1c1cc(C)ccc1C (centres undefined) the results were miR122 inh inactive, Yeast UUG start inactive, Cneo AK release inactive and C2C12 statin 134.
`O=C(NCCN1CCCCC1)[C@@H]1N[C@@H]2c3ccc(-c4cccnc4)c(=O)n3C[C@@H]2[C@H]1CO` gave C2C12 statin inactive.
For O=C(NCCN1CCCCC1)[C@H]1N[C@H]2c3ccc(-c4ccncc4)c(=O)n3C[C@H]2[C@@H]1CO the results were miR122 inh inactive, Cneo AK release 98 and C2C12 statin inactive.
Screening CCC(=O)N1CC[C@@H]2[C@H](CO)Nc3ccc(-c4cccc(C#N)c4)cc3[C@@H]21 returned miR122 inh inactive, Yeast UUG start inactive, Cneo AK release inactive and C2C12 statin inactive.
C[C@@H]1CN([C@H](C)CO)C(=O)c2cc(NC(=O)c3ccccc3)ccc2O[C@@H](C)CCCCO[C@@H]1CN(C)C(=O)c1ccccc1 was read as miR122 inh inactive.
O=C(C[C@H]1CC[C@@H]2[C@H](COC[C@H](O)CN2S(=O)(=O)c2ccccc2)O1)NCC1CCCCC1 was read as miR122 inh inactive, Yeast UUG start inactive, Cneo AK release inactive and C2C12 statin inactive.
O=[N+]([O-])c1ccc(N/N=C/c2cccc(O)c2O)cc1 was read as Yeast UUG start inactive, Cneo AK release inactive and C2C12 statin 92.
For CC(C)NC(=O)N1C[C@@H]2[C@H](c3ccccc31)[C@@H](CO)N2C(=O)c1ccccc1F the results were miR122 inh inactive, Yeast UUG start inactive, Cneo AK release inactive and C2C12 statin inactive.
Screening CC=Cc1ccc2n(c1=O)C[C@@H]1[C@@H](CO)[C@H](C(=O)NCc3ccc4c(c3)OCO4)[C@H]2N1C(=O)C1CC1 (mixture of isomers) returned miR122 inh inactive, Cneo AK release 101 and C2C12 statin inactive.
For CC=Cc1ccc2n(c1=O)C[C@H]1[C@H](CO)[C@@H](C(=O)NCc3ccc4c(c3)OCO4)[C@@H]2N1C(=O)C1CC1 (mixture of isomers) the results were miR122 inh inactive, Cneo AK release 104 and C2C12 statin inactive.
Screening CC(=O)N[C@@H]1CC[C@H](CCNC(=O)C2CC2)O[C@H]1CO returned miR122 inh inactive, Yeast UUG start inactive, Cneo AK release inactive and C2C12 statin inactive.
`CCC(=O)Nc1ccc2c(c1)OC[C@H](C)N(C(=O)c1ccc(F)cc1)C[C@@H](C)[C@@H](OC)CN(C)C2=O` gave Cneo AK release 92 and C2C12 statin inactive.
For CCC(=O)Nc1ccc2c(c1)OC[C@H](C)N(C(=O)c1ccc(F)cc1)C[C@H](C)[C@H](OC)CN(C)C2=O the results were Cneo AK release inactive and C2C12 statin inactive.
For CCCC(=O)Nc1ccc2c(c1)C(=O)N(C)C[C@H](OC)[C@@H](C)CN(C(=O)c1cccnc1)[C@@H](C)CO2 the results were Yeast UUG start inactive, Cneo AK release 82 and C2C12 statin inactive.
For Cc1ccc(S(=O)(=O)N[C@H]2CC[C@H](CCNC(=O)C3CCCCC3)O[C@@H]2CO)cc1 the results were miR122 inh inactive, Yeast UUG start inactive, Cneo AK release inactive and C2C12 statin inactive.
C[C@@H]1CN([C@H](C)CO)C(=O)c2cc(NS(=O)(=O)c3ccc(F)cc3)ccc2O[C@@H](C)CCCCO[C@@H]1CN(C)C(=O)CCC(F)(F)F was read as miR122 inh inactive, Yeast UUG start inactive and Cneo AK release inactive.
Screening O=C(O)/C=C1\NC(=O)c2ccccc21 returned miR122 inh inactive, Yeast UUG start inactive, Cneo AK release inactive and C2C12 statin 104.
Screening CN=C1c2ccccc2CN1c1cccc(C(=O)OC)c1 returned miR122 inh inactive, Yeast UUG start inactive, Cneo AK release inactive and C2C12 statin 100.
